# Apparent affinities of Ab-14 variants for a coronavirus HR2 peptide

Antigen: PDVDLGDISGINAS, a 14-residue peptide of the SARS-CoV-2 spike HR2 region.

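The parent was found by panning a naive human phage display library on the peptide. AAYL49 was designed without a model: most single CDR substitutions and a random sample of double and triple ones. Affinity was read by AlphaSeq, a pooled yeast mating assay with surface-displayed partners. Pairs that bind mate more often; barcode pairs of the diploids are counted by sequencing. A regression on co-assayed BCL2-family reference pairs converts the normalised counts of each replicate to an apparent Kd. Each pool was mated in three replicate cultures.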

The variants keep the light chain, the linker and the frameworks of Ab-14 (scFv order VH, the linker GGGGSGGGGSGGGGS, VL).
VH: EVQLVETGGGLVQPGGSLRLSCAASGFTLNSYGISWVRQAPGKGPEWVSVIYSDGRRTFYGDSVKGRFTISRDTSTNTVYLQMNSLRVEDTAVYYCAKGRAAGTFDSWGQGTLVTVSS
VL: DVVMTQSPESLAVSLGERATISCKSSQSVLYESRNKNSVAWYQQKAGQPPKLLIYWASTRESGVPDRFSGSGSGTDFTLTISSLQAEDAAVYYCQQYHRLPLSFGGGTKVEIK

Substitutions are numbered in sequence along the VH above, starting at 1 (not Kabat). Every variant below is changed at Y52 of the VH (sequential numbering). Values are log10 of the apparent Kd in nM; lower means stronger binding. The mean shown is taken over the replicates in which the pair was detected. "nd" marks a missing value. The strain was present, yet no cells mated with the target were sequenced in any replicate, which points to weak or no binding. For reference, the parent read 0.65 as the reference entry and 4.11 (one replicate of three) as a member of this library.

The variant Y52V A102I gave 3.23 (1 of 3 replicates; controls 0 of 9).
The variant Y52W Y60N gave 5.09 (1 of 3 replicates; controls 2 of 9).
The variant Y52S F59K R100E gave 4.83 (2 of 3 replicates; controls 3 of 9).
The variant Y52H R56H R57Y gave 3.39 (1 of 3 replicates; controls 0 of 9).
The variant Y52G R56D K65A gave nd (0 of 3 replicates; controls 1 of 9).
The variant L29T Y52E S53Q gave 3.51 (1 of 3 replicates; controls 0 of 9).
The variant N30D I34N Y52A gave nd (0 of 3 replicates; controls 1 of 9).
The variant Y52R D54Q A101W gave nd (0 of 3 replicates; controls 2 of 9).
The variant L29D Y52E S63A gave 4.85 (3 of 3 replicates; controls 3 of 9).
The variant Y52Q T58L S63E gave nd (0 of 3 replicates; controls 0 of 9).
The variant G26N Y52G V64G gave nd (0 of 3 replicates; controls 0 of 9).
The variant V50A Y52E R56H gave 4.08 (1 of 3 replicates; controls 2 of 9).
The variant N30V Y52A V64E gave nd (0 of 3 replicates; controls 1 of 9).
The variant I34M Y52S gave 3.60 (1 of 3 replicates; controls 2 of 9).
The variant Y52C K65E R100K gave nd (0 of 3 replicates; controls 0 of 9).
The variant Y52M R57F F59S gave nd (0 of 3 replicates; controls 0 of 9).
The variant V50I Y52E K65I gave nd (0 of 3 replicates; controls 0 of 9).
The variant Y52A F105Y gave nd (0 of 3 replicates; controls 3 of 9).
The variant T28Y Y52K S53V gave nd (0 of 3 replicates; controls 0 of 9).
The variant Y52A R57Y T104S gave nd (0 of 3 replicates; controls 0 of 9).
The variant I34P Y52V gave 3.93 (1 of 3 replicates; controls 3 of 9).
The variant F27T T28H Y52P gave nd (0 of 3 replicates; controls 1 of 9).
The variant Y52M Y60Q S107N gave nd (0 of 3 replicates; controls 0 of 9).
The variant I34W Y52S G55C gave nd (0 of 3 replicates; controls 1 of 9).
The variant Y52Q G61F S107M gave nd (0 of 3 replicates; controls 0 of 9).
The variant Y52N F105P S107K gave 4.45 (2 of 3 replicates; controls 4 of 9).
The variant Y52L D106M gave 4.38 (1 of 3 replicates; controls 0 of 9).
The variant Y52W R56L gave nd (0 of 3 replicates; controls 0 of 9).
The variant Y52A T58Y gave nd (0 of 3 replicates; controls 0 of 9).
The variant Y52P V64L F105Y gave nd (0 of 3 replicates; controls 1 of 9).
The variant Y52C R56W T58D gave 5.71 (1 of 3 replicates; controls 5 of 9).
The variant V50W Y52I T58F gave nd (0 of 3 replicates; controls 0 of 9).
The variant Y52K gave nd (0 of 3 replicates; controls 1 of 9).
The variant Y32F Y52S D106S gave nd (0 of 3 replicates; controls 1 of 9).
The variant G26L F27E Y52W gave 2.95 (2 of 3 replicates; controls 0 of 9).
The variant Y52F S53D D62S gave 4.55 (1 of 3 replicates; controls 3 of 9).
The variant Y52G F59W G61A gave 4.37 (1 of 3 replicates; controls 2 of 9).
The variant Y52E S53P G103Q gave 4.46 (1 of 3 replicates; controls 2 of 9).
The variant G33R Y52L Y60W gave nd (0 of 3 replicates; controls 1 of 9).
The variant I34P Y52D F59R gave 3.98 (1 of 3 replicates; controls 1 of 9).
The variant L29M Y52H S53A gave 1.75 (3 of 3 replicates; controls 2 of 9).
The variant Y52T D54S S63G gave 4.88 (2 of 3 replicates; controls 4 of 9).
The variant Y52H D54F Y60G gave 3.81 (2 of 3 replicates; controls 2 of 9).
The variant S35M Y52W D62Y gave nd (0 of 3 replicates; controls 1 of 9).

Repeated from above, the 2 best binders with a signal in all replicates:

changes	mean log10 Kd (nM)	detected	signal with controls
L29M Y52H S53A	1.75	3/3	2/9
L29D Y52E S63A	4.85	3/3	3/9

Three control strains display no target. For library AAYL49, 15% of the pairings with them gave a signal, with a median of 4.06 and one signal in twenty below 2.83, so weak values seen in few replicates may be background. The control count says in how many pairings with the empty strains this scFv gave a signal.

Data: MIT Lincoln Laboratory AlphaSeq set, Engelhart et al. 2022, doi:10.1038/s41597-022-01779-4, as distributed in FLAb.